Structures are written as SMILES.

The target in this experiment is T1, mPGES-1 (Homo sapiens, UniProt O14684).
T1 construct: endogenous in cells; host or cells: A549 cells stimulated with IL-1β; microsomal fraction
T1 sequence (O14684 1-152): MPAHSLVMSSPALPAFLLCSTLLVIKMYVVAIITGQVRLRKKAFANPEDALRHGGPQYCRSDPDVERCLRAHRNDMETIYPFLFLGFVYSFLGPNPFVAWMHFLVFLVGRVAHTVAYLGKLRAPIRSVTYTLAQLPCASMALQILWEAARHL
Briefly: Cell-free mPGES-1 activity assay (microsomes of IL-1β-stimulated A549 cells, PGE2 formation by RP-HPLC). The class given is biochemical. As to conditions: compound at 10 μM; percentage of vehicle control (DMSO) = 100%, n = 3. As for the experimental part:
Compounds 1a–f and 2a–d were submitted to a cell‐free assay mPGES‐1^[ [52] ^] to validate the inhibitory activity predicted in silico. All the compounds were screened at two different concentrations (10 and 1 µM), with the aim of identifying the candidates able to induce a significant inhibition of PGE2 formation. […] Also, compound 1b led to ~55% residual mPGES‐1 activity at 10 µM. Unfortunately, compound 1d could not be analyzed due to unspecific interference of the compound with the assay.
Microsomes of A549 cells containing mPGES‐1 were used as enzyme sources. In brief, A549 cells were stimulated with interleukin‐1β (IL‐1β) (2 ng/mL) for 48 h, harvested, and sonicated. The lysate was first centrifugated at 10,000g (10 min), and then at 174,000g for (1 h) at 4°C. The pellet (microsomal fraction) was resuspended in 1 ml homogenization buffer (0.1 M potassium phosphate buffer, pH = 7.4, 1 mM phenylmethanesulfonyl fluoride, 60 µg/mL soybean trypsin inhibitor, 1 µg/mL leupeptin, 2.5 mM GSH, and 250 mM sucrose), the total protein concentration was determined, and microsomes were diluted in potassium phosphate buffer (0.1 M, pH 7.4) containing GSH (2.5 mM) and seeded in a 96‐well plate. […] PGE2 and 11β‐PGE2 were extracted by solid‐phase extraction, and PGE2 formation was quantified by RP‐HPLC.^[ [52] ^] […]

Consider `CC(C)c1ccc2c(c1)c(SC(C)(C)C)c(CC(C)(C)C(=O)O)n2Cc1ccc(Cl)cc1` [MK886, reference compound], for which the “Residual activity of mPGES-1, mean ± SD (%)” value was determined as 33.5 ± 2.1%.

The values are drawn from publication PMC11653428, “5‐methyl‐2‐carboxamidepyrrole‐based novel dual mPGES‐1/sEH inhibitors as promising anticancer candidates” (Archiv Der Pharmazie, 2024).
